Where two headings read alike, the source gives them in different places.
How the values were obtained:
Assay type in all cases: binding
DRB1*0802 = DRB1*0802 (Homo sapiens, UniProt P01903+P01911, A100R/A103L/A169T/F76Y/H45Y/I96F/K41T/L162R/M171V/P40S/Q125H/Q178H/Q39Y/Q99D/R218S/R42G/S66Y/V115G/W38E); conditions: read-out: IC50 nM to purified HLA DRB1*0802
DRB1*1101 = DRB1*1101 (Homo sapiens, UniProt P01903+P01911, A100R/A169T/A87E/I96F/K41T/L162R/M171V/P40S/Q125H/Q178H/Q39Y/Q99D/R42S/S66Y/T262R/V115G/W38E); conditions: read-out: IC50 nM to purified HLA DRB1*1101
DRB4*0101 = target: T1, DRB4*0101 (Homo sapiens, UniProt P01903+P13762, G164S); assay: biochemical; conditions: IC50 nM to purified HLA DRB4*0101
T1 construct: made in house; host or cells: EBV-transformed homozygous human B cell lines, transfected fibroblasts or single-allele 721.221 transfectants

DRB1*0701 = DRB1*0701 (Homo sapiens, UniProt P01903+P01911, A100R/A102G/A103Q/D57E/D86V/E43K/F76Y/K127E/L162R/M171V/P40G/Q125H/Q99D/R33Q/R42Y/R54Q/S133A/S66F/T210M/V115G/Y107V/Y59L/Y89S); conditions: read-out: IC50 nM to purified HLA DRB1*0701
DRB1*0401 = target: T2, DRB1*0401 (Homo sapiens, UniProt P01903+P01911, A100K/A169T/F76Y/I96L/K127E/L162R/M171V/N62H/P40V/Q125Y/R42H/S133A/S149N/S66Y/V115G/V209L/W38E); assay: biochemical
T2 construct: made in house; host or cells: EBV-transformed homozygous human B cell lines, transfected fibroblasts or single-allele 721.221 transfectants

DRB1*0101 = target: T3, DRB1*0101 (Homo sapiens, UniProt P01903+P01911, A100R/D57E/F55L/F60I/F76Y/I96L/L162R/M171V/P40L/Q125E/R42F/V115G/Y59C); assay: biochemical
T3 construct: made in house; host or cells: EBV-transformed homozygous human B cell lines, transfected fibroblasts or single-allele 721.221 transfectants

DRB1*1501 = target: T4, DRB1*1501 (Homo sapiens, UniProt P01903+P01911); assay: biochemical
T4 construct: made in house; host or cells: EBV-transformed homozygous human B cell lines, transfected fibroblasts or single-allele 721.221 transfectants

DRB1*1302 = DRB1*1302 (Homo sapiens, UniProt P01903+P01911, A100E/A169T/K41T/L162R/M171V/P40S/Q125H/Q178H/Q39Y/Q99D/R42S/S66N/T262R/V115G/W38E/Y61H); conditions: read-out: IC50 nM to purified HLA DRB1*1302
DRB1*0405 = DRB1*0405 (Homo sapiens, UniProt P01903+P01911, A100R/A169T/D86S/F76Y/I96L/K127E/L162R/M171V/N62H/P40V/Q125Y/R42H/S133A/S149N/S66Y/V115G/V209L/W38E); assay: biochemical
DRB1*0404 = DRB1*0404 (Homo sapiens, UniProt P01903+P01911, A100R/A169T/F76Y/I96L/K127E/L162R/M171V/N62H/P40V/Q125Y/R42H/S133A/S149N/S66Y/V209L/W38E); assay: biochemical
DRB1*0901 = DRB1*0901 (Homo sapiens, UniProt P01903+P01911, A100R/A103E/D57H/D86V/F55Y/F60I/F76Y/I96F/K127E/L162R/M171V/P40D/Q125H/Q99R/R33Q/R42F/S133A/S66N/T210M/V115G/W38K/Y107V/Y59G/Y89S); conditions: read-out: IC50 nM to purified HLA DRB1*0901
DRB1*0301 = target: T5, DRB1*0301 (Homo sapiens, UniProt P01903+P01911, A100K/A102G/A103R/A169T/F55Y/I96L/K41T/L162R/M171V/P40S/Q125H/Q178H/Q39Y/R42S/S66N/T106N/T262R/W38E/Y61H); conditions: read-out: IC50 nM to purified HLA DRB1*0301
T5 construct: made in house; host or cells: EBV-transformed homozygous human B cell lines, transfected fibroblasts or single-allele 721.221 transfectants

[1] = IC50 nM to purified HLA DRB1*0401
[2] = IC50 nM to purified HLA DRB1*0101
[3] = read-out: IC50 nM to purified HLA DRB1*0404

Work on `CC[C@H](C)[C@H](NC(=O)CNC(=O)[C@@H](N)CCCCN)C(=O)N[C@@H](CC(C)C)C(=O)NCC(=O)N[C@@H](Cc1ccccc1)C(=O)N[C@H](C(=O)N[C@@H](Cc1ccccc1)C(=O)N[C@H](C(=O)N[C@@H](CC(C)C)C(=O)N[C@H](C(=O)N[C@H](C(=O)N1CCC[C@H]1C(=O)N[C@@H](CO)C(=O)N[C@@H](CCC(=O)O)C(=O)O)C(C)C)[C@@H](C)O)[C@@H](C)O)C(C)C` [Flu.M1.60] yielded an IC50 (DRB1*0802) of 33 nM, an IC50 (DRB1*1101) of 37 nM and an IC50 (DRB4*0101) of 767 nM. The IC50 (DRB1*0701) was 11 nM, the IC50 (DRB1*0401; [1]) was 5.6 nM and the IC50 (DRB1*0401; read-out: IC50 nM to purified HLA DRB1*0401) was 4.8 nM. It also gave an IC50 (DRB1*0101; [2]) of 28 nM, an IC50 (DRB1*0101; read-out: IC50 nM to purified HLA DRB1*0101) of 15 nM and an IC50 (DRB1*1501; IC50 nM to purified HLA DRB1*1501) of 129 nM. It also gave an IC50 (DRB1*1302) of 10 nM, an IC50 (DRB1*0405; read-out: IC50 nM to purified HLA DRB1*0405) of 6 nM and an IC50 (DRB1*0404; [3]) of 1 nM. The IC50 (DRB1*0901) was 33 nM and the IC50 (DRB1*0301) was 2610 nM.

`CC[C@H](C)[C@H](NC(=O)[C@H](Cc1ccccc1)NC(=O)[C@H](CC(C)C)NC(=O)[C@H](CCC(N)=O)NC(=O)[C@@H](N)CC(C)C)C(=O)N[C@@H](CCCCN)C(=O)N[C@@H](CC(=O)O)C(=O)N[C@@H](Cc1ccc(O)cc1)C(=O)N[C@@H](CCCNC(=N)N)C(=O)N[C@@H](Cc1ccc(O)cc1)C(=O)N[C@H](C(=O)N[C@@H](Cc1ccc(O)cc1)C(=O)N[C@@H](CCCNC(=N)N)C(=O)N[C@@H](CS)C(=O)N[C@@H](Cc1c[nH]cn1)C(=O)O)[C@@H](C)O` [Flu.PB1.551] gave an IC50 (DRB1*0401; [1]) of 2910 nM, an IC50 (DRB1*0101; [2]) of 6900 nM and an IC50 (DRB1*0405) of 7980 nM. It also gave an IC50 (DRB1*0404; IC50 nM to purified HLA DRB1*0404) of 4190 nM.

For `CC[C@H](C)[C@H](NC(=O)[C@H](CC(N)=O)NC(=O)[C@H](Cc1ccc(O)cc1)NC(=O)[C@H](CC(C)C)NC(=O)[C@H](CC(N)=O)NC(=O)[C@@H]1CCCN1)C(=O)N[C@@H](CCCNC(=N)N)C(=O)N[C@@H](CC(N)=O)C(=O)N[C@@H](CC(C)C)C(=O)N[C@@H](Cc1c[nH]cn1)C(=O)N[C@H](C(=O)N1CCC[C@H]1C(=O)N[C@@H](CCC(=O)O)C(=O)N[C@H](C(=O)N[C@@H](CS)C(=O)O)C(C)C)[C@@H](C)CC` [Flu.PB1.599], the IC50 (DRB1*1501; read-out: IC50 nM to purified HLA DRB1*1501) was 9.1 nM and the IC50 (DRB1*0404; [3]) was 8.6 nM.

Reference: patent publication US9511134B2, “Inducing immune responses to influenza virus using polypeptide and nucleic acid compositions” (priority 2006, dated 2016)
